Read-outs that look alike come from different tables or passages of the source. Blank lines part the entries; values can stand above or below the compound they belong to.
Legend:
Mutant type EZH2(Y641N) = Mutant type EZH2(Y641N) (Homo sapiens (Human), UniProt Q15910, Y641N); experiment: AlphaLISA, mutant type PRC2 complex EZH2(Y641N); assay type: biochemical
[1] = system: human diffuse large cell lymphoma B lymphocytes (Pfeiffer cell); experiment: Pfeiffer cell proliferation, Calcein AM staining; assay type: cell-based
Mutant type EZH2(A677G) = Mutant type EZH2(A677G) (Homo sapiens (Human), UniProt Q15910, A677G); experiment: AlphaLISA, mutant type PRC2 complex EZH2(A677G); assay type: biochemical; details: read-out: Mutant type EZH2(A677G) IC59 Nanomoles per Liter
wild-type EZH2 = wild-type EZH2 (Homo sapiens (Human), UniProt Q15910); experiment: radiometric assay, activity to wild-type EZH2 of PRC2
Mutant type EZH2(Y641F) = Mutant type EZH2(Y641F) (Homo sapiens (Human), UniProt Q15910, Y641F); experiment: AlphaLISA, mutant type PRC2 complex EZH2(Y641F); assay type: biochemical
[2] = read-out: Mutant type EZH2(Y641N) IC50 Nanomoles per Liter
[3] = Homo sapiens, Pfeiffer, read-out: Pfeiffer Proliferation IC50 Nanomoles per Liter (nM), data of 14th day
[4] = read-out: Wild-type EZH2 IC50 Nanomoles per Liter
[5] = read-out: Mutant type EZH2(Y641F) IC50 Nanomoles per Liter

The chains behind the UniProt entries cited, without tags or fusion partners.
UniProt Q15910, whole entry Y641N: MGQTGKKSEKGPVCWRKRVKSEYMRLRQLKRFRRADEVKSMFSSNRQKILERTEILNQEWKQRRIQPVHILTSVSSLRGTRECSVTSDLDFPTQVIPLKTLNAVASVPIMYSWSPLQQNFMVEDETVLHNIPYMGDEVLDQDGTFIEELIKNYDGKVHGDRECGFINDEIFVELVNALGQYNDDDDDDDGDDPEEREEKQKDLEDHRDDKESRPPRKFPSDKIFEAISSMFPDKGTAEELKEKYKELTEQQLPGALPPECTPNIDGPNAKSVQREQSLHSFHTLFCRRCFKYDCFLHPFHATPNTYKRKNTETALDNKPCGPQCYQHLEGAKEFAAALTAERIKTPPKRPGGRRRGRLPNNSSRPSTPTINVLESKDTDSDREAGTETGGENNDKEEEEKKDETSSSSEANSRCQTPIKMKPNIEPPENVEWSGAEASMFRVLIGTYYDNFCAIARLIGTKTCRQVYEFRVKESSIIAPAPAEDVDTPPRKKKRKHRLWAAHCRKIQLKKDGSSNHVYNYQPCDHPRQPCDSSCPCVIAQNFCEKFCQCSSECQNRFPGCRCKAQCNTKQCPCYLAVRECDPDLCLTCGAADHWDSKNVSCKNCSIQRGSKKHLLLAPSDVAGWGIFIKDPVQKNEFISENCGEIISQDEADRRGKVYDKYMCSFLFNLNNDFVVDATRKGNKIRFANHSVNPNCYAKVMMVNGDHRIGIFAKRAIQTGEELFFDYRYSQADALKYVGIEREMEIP
UniProt Q15910, whole entry A677G: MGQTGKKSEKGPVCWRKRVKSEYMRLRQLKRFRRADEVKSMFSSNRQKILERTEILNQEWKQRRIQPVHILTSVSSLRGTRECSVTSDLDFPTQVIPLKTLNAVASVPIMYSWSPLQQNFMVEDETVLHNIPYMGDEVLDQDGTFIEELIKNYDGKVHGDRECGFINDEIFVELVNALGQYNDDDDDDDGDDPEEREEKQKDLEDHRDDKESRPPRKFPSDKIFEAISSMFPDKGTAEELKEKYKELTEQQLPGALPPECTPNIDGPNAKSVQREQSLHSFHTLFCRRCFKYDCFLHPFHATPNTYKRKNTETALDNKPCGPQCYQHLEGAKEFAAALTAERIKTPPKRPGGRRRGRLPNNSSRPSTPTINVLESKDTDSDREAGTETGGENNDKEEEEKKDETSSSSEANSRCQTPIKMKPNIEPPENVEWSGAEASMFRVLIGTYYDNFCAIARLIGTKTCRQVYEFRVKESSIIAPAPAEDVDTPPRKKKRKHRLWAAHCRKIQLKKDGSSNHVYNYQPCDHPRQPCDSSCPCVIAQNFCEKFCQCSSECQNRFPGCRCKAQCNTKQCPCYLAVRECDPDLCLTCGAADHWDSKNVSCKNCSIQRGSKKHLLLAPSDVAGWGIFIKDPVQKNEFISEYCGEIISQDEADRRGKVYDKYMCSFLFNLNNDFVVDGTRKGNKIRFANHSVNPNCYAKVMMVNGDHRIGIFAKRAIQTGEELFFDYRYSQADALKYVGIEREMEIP
UniProt Q15910, whole entry: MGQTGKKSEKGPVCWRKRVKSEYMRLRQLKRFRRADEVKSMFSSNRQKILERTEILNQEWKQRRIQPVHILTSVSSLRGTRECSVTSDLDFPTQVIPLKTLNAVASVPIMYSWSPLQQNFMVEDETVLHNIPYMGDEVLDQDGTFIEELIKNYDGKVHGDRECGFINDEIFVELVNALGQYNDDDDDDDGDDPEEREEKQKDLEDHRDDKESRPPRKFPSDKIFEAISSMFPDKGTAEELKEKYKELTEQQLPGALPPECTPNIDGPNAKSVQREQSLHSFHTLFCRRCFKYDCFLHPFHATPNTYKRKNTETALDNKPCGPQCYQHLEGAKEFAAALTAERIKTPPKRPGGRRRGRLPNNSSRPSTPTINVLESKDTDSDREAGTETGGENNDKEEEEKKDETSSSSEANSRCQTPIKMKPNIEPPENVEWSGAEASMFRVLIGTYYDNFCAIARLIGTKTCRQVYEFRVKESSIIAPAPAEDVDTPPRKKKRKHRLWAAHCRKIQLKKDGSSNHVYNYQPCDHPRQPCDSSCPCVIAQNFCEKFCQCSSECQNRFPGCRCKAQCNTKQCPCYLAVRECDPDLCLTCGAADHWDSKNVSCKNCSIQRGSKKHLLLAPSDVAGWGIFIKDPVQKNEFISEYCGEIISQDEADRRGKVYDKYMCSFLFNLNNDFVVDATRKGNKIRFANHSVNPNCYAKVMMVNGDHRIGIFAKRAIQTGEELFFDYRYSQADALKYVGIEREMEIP
UniProt Q15910, whole entry Y641F: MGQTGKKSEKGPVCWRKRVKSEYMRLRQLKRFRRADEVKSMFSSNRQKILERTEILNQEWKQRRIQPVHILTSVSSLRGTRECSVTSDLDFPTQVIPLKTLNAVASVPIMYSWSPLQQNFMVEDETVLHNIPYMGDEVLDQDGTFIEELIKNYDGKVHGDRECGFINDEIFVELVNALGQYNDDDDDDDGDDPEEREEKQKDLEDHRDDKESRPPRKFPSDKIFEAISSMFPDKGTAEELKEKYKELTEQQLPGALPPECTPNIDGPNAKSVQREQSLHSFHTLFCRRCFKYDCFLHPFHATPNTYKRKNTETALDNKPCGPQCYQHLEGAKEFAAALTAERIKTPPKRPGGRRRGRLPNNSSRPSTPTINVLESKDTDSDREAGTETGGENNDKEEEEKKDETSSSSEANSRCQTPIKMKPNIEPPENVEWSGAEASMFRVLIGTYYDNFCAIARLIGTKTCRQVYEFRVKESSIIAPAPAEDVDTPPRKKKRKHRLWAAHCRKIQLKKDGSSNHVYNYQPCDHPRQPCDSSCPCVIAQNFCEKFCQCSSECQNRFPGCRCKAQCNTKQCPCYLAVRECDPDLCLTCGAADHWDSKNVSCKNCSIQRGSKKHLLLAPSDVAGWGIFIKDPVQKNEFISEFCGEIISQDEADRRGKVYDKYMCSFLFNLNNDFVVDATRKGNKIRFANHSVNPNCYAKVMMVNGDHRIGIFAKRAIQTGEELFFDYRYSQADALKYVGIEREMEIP

IC50 (Mutant type EZH2(Y641N); [2]): 0.46 nM
Compound: CCN(c1cc(-c2ccc3c(c2)NC(=O)C32CCOCC2)cc(C(=O)NCc2c(C)cc(C)[nH]c2=O)c1C)C1CCC(N(C)CCOC)CC1 (centres unmarked) [Example 99, N-((4,6-Dimethyl-2-oxo-1,2-dihydropyridin-3-yl)methyl)-3-(ethyl(4-((2-methoxyethyl)(methyl)amino)cyclohexyl)amino)-2-methyl-5-(2-oxo-2′,3′,5′,6′-tetrahydrospiro[dihydroindole-3,4′-pyran]-6-yl)benzamide]

IC50 (wild-type EZH2; [4]): 0.46 nM
Compound: CCN(c1cc(-c2ccc3c(c2)NC(=O)C32CCN(S(C)(=O)=O)CC2)cc(C(=O)NCc2c(C)cc(C)[nH]c2=O)c1C)C1CCOCC1 [Example 87, N-((4,6-dimethyl-2-oxo-1,2-dihydropyridin-3-yl)methyl)-3-(ethyl(tetrahydro-2H-pyran-4-yl)amino)-2-methyl-5-(1′-methylsulfonyl-2-oxospiro[dihydroindole-3,4′-piperidine]-6-yl)benzamide]

IC50 (Mutant type EZH2(A677G)): 0.46 nM
Compound: CCN(c1cc(-c2ccc3c(c2)NC(=O)C32CCSCC2)cc(C(=O)NCc2c(C)cc(C)[nH]c2=O)c1C)C1CCOCC1 [Example 89, N-((4,6-dimethyl-2-oxo-1,2-dihydropyridin-3-yl)methyl)-3-(ethyl(tetrahydro-2H-pyran-4-yl)amino)-2-methyl-5-(2-oxo-2′,3′,5′,6′-tetrahydrospiro[dihydroindole-3,4′-thiapyran]-6-yl)benzamide]

IC50 (wild-type EZH2; [4]): 0.46 nM
Compound: CCN(c1cc(-c2ccc3c(c2)NC(=O)C32CCOCC2)cc(C(=O)NCc2c(C)cc(C)[nH]c2=O)c1C)C1CC(C)OC(C)C1 (centres unmarked) [Example 104, N-((4,6-Dimethyl-2-oxo-1,2-dihydropyridin-3-yl)methyl)-3-(ethyl(2,6-dimethyltetrahydro-2H-pyran-4-yl)amino)-2-methyl-5-(2-oxo-2′,3′,5′,6′-tetrahydrospiro[dihydroindole-3,4′-pyran]-6-yl)benzamide]

IC50 (wild-type EZH2; [4]): 0.75 nM
Compound: CCN(c1cc(-c2ccc3c(c2)CCC32CCOCC2)cc(C(=O)NCc2c(OC)cc(C)[nH]c2=O)c1C)C1CCOCC1 [Example 113, 3-(Ethyl(tetrahydro-2H-pyran-4-yl)amino)-5-(2,2′,3,3′,5′,6′-hexahydrospiro[indene-1,4′-pyran]-5-yl)-N-((4-methoxy-6-methyl-2-oxo-1,2-dihydropyridin-3-yl)methyl)-2-methylbenzamide]

IC50 (Mutant type EZH2(A677G)): 0.75 nM
Compound: CCN(c1cc(-c2ccc3c(c2)NC(=O)C32CCN(C(=O)OC(C)(C)C)CC2)cc(C(=O)NCc2c(C)cc(C)[nH]c2=O)c1C)C1CCOCC1 [Example 79, Tert-butyl 6-(3-(((4,6-dimethyl-2-oxo-1,2-dihydropyridin-3-yl)methyl)carbamoyl)-5-(ethyl(tetrahydro-2H-pyran-4-yl)amino)-4-methylphenyl)-2-oxospiro[dihydroindole-3,4′-piperidine]-1′-carboxylate]

The remaining lines, values behind:

Compound: CCN(c1cc(-c2ccc3c(c2)NC(=O)C32CCOCC2)cc(C(=O)NCc2c(OC)cc(C)[nH]c2=O)c1C)C1CCOCC1 [Example 115, 3-(Ethyl(tetrahydro-2H-pyran-4-yl)amino)-N-((4-methoxy-6-methyl-2-oxo-1,2-dihydropyridin-3-yl)methyl)-2-methyl-5-(2-oxo-2′,3′,5′,6′-tetrahydrospiro[dihydroindole-3,4′-pyran]-6-yl)benzamide]
IC50 [1, 3]: 2.45 nM

Compound: CCN(c1cc(-c2ccc3c(c2)CCC32CCOCC2)cc(C(=O)NCc2c(OC)cc(C)[nH]c2=O)c1C)C1CCOC(C)(C)C1 (centres unmarked) [Example 43, 3-((2,2-dimethyltetrahydro-2H-pyran-4-yl)(ethyl)amino)-5-(2,2′,3,3′,5′,6′-hexahydrospiro[indene-1,4-pyran]-5-yl)-N-((4-methoxy-6-methyl-2-oxo-1,2-dihydropyridin-3-yl)methyl)-2-methylbenzamide]
IC50 (Mutant type EZH2(A677G)): 0.23 nM
IC50 (Mutant type EZH2(Y641N); [2]): 0.08 nM
IC50 (wild-type EZH2; [4]): 0.61 nM

Compound: CCN(c1cc(-c2cc3c(cc2F)CCC32CCOCC2)cc(C(=O)NCc2c(C)cc(C)[nH]c2=O)c1C)C1CCOCC1 [Example 24, N-((4,6-dimethyl-2-carbonyl-1,2-dihydropyridin-3-yl)methyl)-3-(ethyl(tetrahydro-2H-pyran-4-yl)amino)-5-(5-fluoro-2,2′,3,3′,5′,6′-hexahydrospiro[indene-1,4′-pyran]-6-yl)-2-methylbenzamide]
IC50 (wild-type EZH2; [4]): 0.75 nM

Compound: CCN(c1cc(-c2ccc3c(c2)NCC32CCOCC2)cc(C(=O)NCc2c(C)cc(C)[nH]c2=O)c1C)C1CCNCC1 [Example 6, N-((4,6-dimethyl-2-oxo-1,2-dihydropyridin-3-yl)methyl)-3-(ethyl(piperidin-4-yl)amino)-2-methyl-5-(2′,3′,5′,6′-tetrahydrospiro[dihydroindole-3,4′-pyran]-6-yl)benzamide]
IC50 (wild-type EZH2; [4]): 0.75 nM

Compound: CCN(c1cc(-c2ccc3c(c2)N(C(C)C)CC32CCOCC2)c(Cl)c(C(=O)NCc2c(OC)cc(C)[nH]c2=O)c1C)C1CCOCC1 [Example 49, 2-chloro-5-(ethyl(tetrahydro-2H-pyran-4-yl)amino)-3-(1-isopropyl-2,3,5,6-tetrahydrospiro[dihydroindole-3,4-pyran]-6-yl)-N-((4-methoxy-6-methyl-2-oxo-1,2-dihydropyridin-3-yl)methyl)-6-methylbenzamide]
IC50 (Mutant type EZH2(Y641F)): 0.39 nM
IC50 (Mutant type EZH2(Y641N)): 0.12 nM
IC50 [1, 3]: 0.15 nM
IC50 (wild-type EZH2): 0.61 nM

Compound: CCN(c1cc(-c2ccc3c(c2)NC(=O)C32CCNCC2)cc(C(=O)NCc2c(OC)cc(C)[nH]c2=O)c1C)C1CCNCC1 [Example 116, 3-(Ethyl(piperidin-4-yl)amino)-N-((4-methoxy-6-methyl-2-oxo-1,2-dihydropyridin-3-yl)methyl)-2-methyl-5-(2-oxospiro[indole-3,4′-piperidine]-6-yl)benzamide]
IC50 [1, 3]: 1.69 nM

Compound: CCN(c1cc(-c2ccc3c(c2)C2(CCOCC2)C(=O)N3)cc(C(=O)NCc2c(C)cc(C)[nH]c2=O)c1C)C1CCOCC1 [Example 77, N-((4,6-dimethyl-2-oxo-1,2-dihydropyridin-3-yl)methyl)-3-(ethyl(tetrahydro-2H-pyran-4-yl)amino)-2-methyl-5-(2-oxo-2′,3′,5′,6′-tetrahydrospiro[dihydroindole-3,4′-pyran]-5-yl)benzamide]
IC50 (Mutant type EZH2(Y641F); [5]): 0.75 nM

Compound: CCN(c1cc(-c2ccc3c(c2)N(C)C(=O)C32CCN(C(C)C)CC2)c(F)c(C(=O)NCc2c(C)cc(C)[nH]c2=O)c1C)C1CCOCC1 [Example 61, N-((4,6-dimethyl-2-oxo-1,2-dihydropyridin-3-yl)methyl)-3-(ethyl(tetrahydro-2H-pyran-4-yl)amino)-6-fluoro-5-(1′-isopropyl-1-methyl-2-oxospiro[dihydroindole-3,4′-piperidine]-6-yl)-2-methylbenzamide]
IC50 (Mutant type EZH2(Y641N)): 0.22 nM

Compound: CCN(c1cc(-c2cc3c(cc2F)C2(CCOCC2)CC3)cc(C(=O)NCc2c(C)cc(C)[nH]c2=O)c1C)C1CCOCC1 [Example 23]
IC50 (Mutant type EZH2(Y641F); [5]): 0.75 nM

Compound: N-((4,6-dimethyl-2-oxo-1,2-dihydropyridin-3-yl)methyl)-3-(ethyl(tetrahydro-2H-pyran-4-yl)amino)-5-(1-isopropyl-2′,3′,5′,6′-tetrahydrospiro[dihydroindole-3,4′-pyran]-6-yl)-2-methylbenzamide [Example 65]
IC50 ([1]; data of 14th day, read-out: Pfeiffer Proliferation IC50 Nanomoles per Liter): 1.87 nM

Compound: CCN(c1cc(-c2ccc3c(c2)N(CC(F)(F)C(F)(F)F)C(=O)C32CCOCC2)cc(C(=O)NCc2c(C)cc(C)[nH]c2=O)c1C)C1CCOCC1 [Example 39, N-((4,6-dimethyl-2-oxo-1,2-dihydropyridin-3-yl)methyl)-3-(ethyl(tetrahydro-2H-pyran-4-yl)amino)-2-methyl-5-(2-oxo-1-(2,2,3,3,3-pentafluoropropyl)-2′,3′,5′,6′-tetrahydrospiro[dihydroindole-3,4′-pyran]-6-yl)benzamide]
IC50 (Mutant type EZH2(Y641F); [5]): 0.43 nM
IC50 (Mutant type EZH2(A677G)): 0.34 nM
IC50 (Mutant type EZH2(Y641N); [2]): 0.21 nM
IC50 (wild-type EZH2; [4]): 0.74 nM

Compound: N-((4,6-dimethyl-2-carbonyl-1,2-dihydropyridin-3-yl)methyl)-3-(ethyl(tetrahydro-2H-pyran-4-yl)amino)-2-methyl-5-(1-neopentyl-2′,3′,5′,6′-tetrahydrospiro[dihydroindole-3,4′-pyran]-6-yl)benzamide [Example 29]
IC50 (Mutant type EZH2(A677G)): 0.61 nM

Compound: CCN(c1cc(-c2cc3c(cc2F)C2(CCOCC2)CC3)cc(C(=O)NCc2c(OC)cc(C)[nH]c2=O)c1C)C1CCOCC1 [Example 17, 3-(ethyl(tetrahydro-2H-pyran-4-yl)amino)-5-(6-fluoro-2,2′,3,3′,5′,6′-hexahydrospiro[indene-1,4′-pyran]-5-yl)-N-((4-methoxy-6-methyl-2-carbonyl-1,2-dihydropyridin-3-yl)methyl)-2-methylbenzamide]
IC50 (Mutant type EZH2(Y641F); [5]): 0.75 nM
IC50 (Mutant type EZH2(A677G)): 0.46 nM

Compound: CCN(c1cc(-c2ccc3c(c2)N(C)C(=O)C32CCN(CC(F)(F)C(F)(F)F)CC2)cc(C(=O)NCc2c(C)cc(C)[nH]c2=O)c1C)C1CCOCC1 [Example 44, N-((4,6-dimethyl-2-oxo-1,2-dihydropyridin-3-yl)methyl)-3-(ethyl(tetrahydro-2H-pyran-4-yl)amino)-2-methyl-5-(1-methyl-2-oxo-1′-(2,2,3,3,3-pentafluoroethyl)spiro[dihydroindole-3,4′-piperidine]-6-yl)benzamide]
IC50 (Mutant type EZH2(Y641F)): 0.75 nM
IC50 (Mutant type EZH2(Y641N)): 0.3 nM
IC50 [1, 3]: 1.75 nM
IC50 (wild-type EZH2): 0.91 nM

Source: patent US12473298B2, “Amide compounds, preparation method therefor, and use thereof in the medical field” (Shanghai Synergy Pharmaceutical Sciences Co., Ltd., priority 2019, dated 2025)
